Data taken from PubChem BioAssay AID588675 (Johns Hopkins Ion Channel Center, 2011).
This is a selection; strong and weak results do not stand in their true shares. Some of these compounds have results that are not shown, active ones among them. The source made the active and inactive calls.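 How the source made its calls: active means plate-corrected calcium response at least 3 library SD above typical, normal starting fluorescence, not activating the receptor alone; inactive means the rest.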

Protein sequences, listed by entry. Tags and fused reporters are not part of them.
UniProt Q96LB2, whole entry: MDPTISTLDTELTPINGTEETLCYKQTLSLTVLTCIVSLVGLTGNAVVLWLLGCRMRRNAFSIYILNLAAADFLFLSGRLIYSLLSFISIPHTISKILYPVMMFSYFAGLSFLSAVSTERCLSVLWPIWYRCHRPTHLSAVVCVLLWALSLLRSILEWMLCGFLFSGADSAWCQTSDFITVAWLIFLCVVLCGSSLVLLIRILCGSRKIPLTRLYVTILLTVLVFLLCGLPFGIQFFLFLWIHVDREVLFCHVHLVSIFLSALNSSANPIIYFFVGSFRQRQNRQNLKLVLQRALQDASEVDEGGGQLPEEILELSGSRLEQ

biological target: Mas-related G-protein coupled receptor member X1 (Homo sapiens) (UniProt Q96LB2); assay: allosteric enhancers of human MrgX1 signaling – HEK293 cells, Fluo-4 calcium flux, primary screen (AID 588675); conditions: MrgX1-HEK293, Fluo-4 calcium flux, FDSS; at 10 µM;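 further: compound read alongside a low EC10 to EC30 dose of BAM8-22 agonist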

Row | Compound | outcome
1 | C=CCN1CCN(CCOC(=O)C(O)(c2ccccc2)c2ccccc2)CC1 | inactive
2 | O=C(NCC1(N2CCCCC2)CCCCC1)c1cc(F)c(F)cc1Cl | inactive
3 | COc1ccc(C(=O)NCC2(N(C)C)CCCCC2)cc1 | inactive
4 | CCN1CCCC(OC(=O)C2(O)c3ccccc3C=Cc3ccccc32)C1 (centres undefined) | inactive
5 | Cc1cc(C(=O)NCC2(N3CCCCC3)CCCCC2)ccc1[N+](=O)[O-] | inactive
6 | O=C(NCC1(N2CCCCC2)CCCCC1)c1cccc(Br)c1 | inactive
7 | Cc1ccccc1C(=O)NCC1(N2CCCCC2)CCCCC1 | inactive
8 | CN(C)c1ccc(C(=O)NCC2(N(C)C)CCCCC2)cc1 | inactive
9 | CN(C)C1CCCC1OC(=O)C(O)(c1ccccc1)c1ccccc1 (centres undefined) | inactive
10 | CCN(CC)CC(C)C(C)OC(=O)C(O)(c1ccccc1)c1ccccc1 (centres undefined) | inactive
11 | COc1cc(SC)ccc1C(=O)NCC1(N(C)C)CCCCC1 | inactive
12 | CC(C)N1C(=O)CC2(CCN(CCOC(=O)C(O)(c3ccccc3)c3ccccc3)CC2)C1=O | inactive
13 | Cc1ccc(C(=O)NCC2(N3CCCCC3)CCCCC2)cc1 | inactive
14 | O=C(NCC1(N2CCCCC2)CCCCC1)c1cc([N+](=O)[O-])ccc1Cl | inactive
15 | CN1[C@@H]2CC[C@H]1CC(OC(=O)C(O)(c1ccccc1)c1ccccc1)C2 (some centres undefined) | inactive
16 | COc1ccc(Br)c(C(=O)NCC2(N3CCCCC3)CCCCC2)c1 | inactive
17 | CC(C)Oc1ccc(C(=O)NCC2(N(C)C)CCCCC2)cc1 | inactive
18 | CN(C)c1cccc(C(=O)NCC2(N(C)C)CCCCC2)c1 | inactive
19 | O=C(OC1CN2CCC1CC2)C(CO)(c1ccccc1)c1ccccc1 (centres undefined) | inactive
20 | COc1cccc(C(=O)NCC2(N3CCCCC3)CCCCC2)c1 | inactive
21 | COc1ccc(Cl)cc1C(=O)NCC1(N(C)C)CCCCC1 | inactive
22 | O=C(NCC1(N2CCCCC2)CCCCC1)c1cccc(Cl)c1 | inactive
23 | CN(C)C1(CNC(=O)c2ccc(Br)cc2)CCCCC1 | inactive
24 | COc1cc(C(=O)NCC2(N(C)C)CCCCC2)c([N+](=O)[O-])cc1OC | inactive
